Measurements published in PMC11305387, “AlphaFold accelerated discovery of psychotropic agonists targeting the trace amine–associated receptor 1” (Science Advances, 2024).

Amino acid sequences for entries named in this document (tags omitted).
UniProt Q96RJ0, whole entry: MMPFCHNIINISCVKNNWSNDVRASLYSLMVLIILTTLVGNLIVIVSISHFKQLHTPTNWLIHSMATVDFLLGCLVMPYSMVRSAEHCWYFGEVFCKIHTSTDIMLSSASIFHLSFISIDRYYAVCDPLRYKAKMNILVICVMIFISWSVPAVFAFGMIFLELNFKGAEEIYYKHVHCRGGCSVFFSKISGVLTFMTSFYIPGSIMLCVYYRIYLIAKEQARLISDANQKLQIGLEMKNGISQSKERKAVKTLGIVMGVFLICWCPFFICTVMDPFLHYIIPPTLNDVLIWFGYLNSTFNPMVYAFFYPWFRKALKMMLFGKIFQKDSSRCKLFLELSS

Target: human TAAR1 (Homo sapiens, UniProt Q96RJ0)
Assay: G protein (mini-Gs) recruitment luminescence complementation assay, agonist mode
Format: cell-based

Structure (SMILES)	pEC50 (tested form: HCl)	pEC50
C1=C(c2ccoc2)CNCC1	7.5	
CC1=C(c2cnco2)CNCC1		5.8
CC1=C(c2cocn2)CNCC1		6.2
c1cc(C2CNCCO2)co1 (stereo not shown)		6.7

Where two headings read alike, the source gives them in different places.
